Reference: US10202345B2, “Substituted azaspiro(4.5)decane derivatives” (priority 2014, dated 2019)

By UniProt entry, the sequences of proteins in these tests, tags left out. Where a name states a change or a piece, a line headed by the entry shows the natural chain unless it says otherwise.
UniProt P35372, whole entry, looked up: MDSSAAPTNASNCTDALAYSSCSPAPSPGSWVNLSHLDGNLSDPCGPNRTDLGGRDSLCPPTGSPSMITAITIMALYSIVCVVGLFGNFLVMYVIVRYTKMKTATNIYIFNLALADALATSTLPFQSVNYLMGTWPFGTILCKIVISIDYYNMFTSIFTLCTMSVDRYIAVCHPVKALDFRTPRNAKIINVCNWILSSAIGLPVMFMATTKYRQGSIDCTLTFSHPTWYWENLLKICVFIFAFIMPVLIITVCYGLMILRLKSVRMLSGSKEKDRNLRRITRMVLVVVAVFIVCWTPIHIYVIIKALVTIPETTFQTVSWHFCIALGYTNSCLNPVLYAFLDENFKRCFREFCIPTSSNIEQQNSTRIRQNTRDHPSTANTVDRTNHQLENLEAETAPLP
UniProt P41146: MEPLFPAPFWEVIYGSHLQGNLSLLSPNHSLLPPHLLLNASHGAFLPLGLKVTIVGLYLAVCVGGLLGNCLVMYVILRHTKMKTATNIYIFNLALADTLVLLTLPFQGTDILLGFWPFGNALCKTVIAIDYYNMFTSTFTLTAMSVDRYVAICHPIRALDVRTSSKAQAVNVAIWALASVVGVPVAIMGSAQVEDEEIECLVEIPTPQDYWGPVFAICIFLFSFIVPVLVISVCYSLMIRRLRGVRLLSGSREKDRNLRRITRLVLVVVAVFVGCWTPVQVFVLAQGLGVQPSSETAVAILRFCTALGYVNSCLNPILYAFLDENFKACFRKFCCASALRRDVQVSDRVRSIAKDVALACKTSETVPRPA

Key:
[1] = target: human μ opiate receptor (Homo sapiens, UniProt P35372); assay: μ opiate receptor binding assay with [3H]-naloxone (WGA-SPA beads); conditions: for Ki: read-out: Ki (μ) mean [μm], mean; for % inhibition (μ) [1 μM]: test concentration 1 μM
[2] = target: ORL1 receptor (Homo sapiens, UniProt P41146); assay: ORL1 receptor binding assay with 3H-nociceptin/orphanin FQ (WGA-SPA beads); conditions: for Ki: read-out: Ki (ORL1) mean, mean; for % inhibition (ORL1) [1 μM]: test concentration 1 μM

| Compound | Ki [1] [µM] | % inhibition (μ) [1 μM] [1] [%] | Ki [2] [µM] | % inhibition (ORL1) [1 μM] [2] [%] |
| --- | --- | --- | --- | --- |
| CCCCN1CC2(CCC(c3ccccc3)(N(C)C)CC2)CC1=O (stereo not drawn) | 0.003 | 97 | 0.0022 | 93.5 |
| COC1(C(=O)N2CCC3(CCC(c4ccccc4)(N(C)C)CC3)C2)CC1 (stereo not drawn) | 0.0655 | 90.5 | 0.15 | 48.5 |
| COC(C)(C)C(=O)N1CCC2(CCC(c3ccccc3)(N(C)C)CC2)C1 (stereo not drawn) | 0.049 | 85.5 | 0.18 | 57 |
| CN(C)C1(C2CCCC2)CCC2(CC1)CC(=O)N(C1CCCC1)C2 (stereo not drawn) | 0.0013 | 99.5 | 0.02 | 88 |
| CN(C)C1(c2cccs2)CCC2(CCN(C(=O)CC3CC3)C2)CC1 (stereo not drawn) | – | 99.5 | – | 94 |
| CN(C)C1(c2cccs2)CCC2(CCN(CC3CCOC3)C2)CC1 (stereo not drawn) | 0.0053 | 98 | 0.0111 | 87 |
| CCCCC1(N(C)C)CCC2(CCN(C(=O)CCC(C)(C)OC)C2)CC1 (stereo not drawn) | 0.0121 | 96.5 | 0.058 | 60.5 |
| CN(C)C1(C2CCCC2)CCC2(CCN(CC3COC3)C2)CC1 (stereo not drawn) | 0.06 | 83 | 0.123 | 48 |
| COC(C)CC(=O)N1CCC2(CCC(c3ccccc3)(N(C)C)CC2)C1 (stereo not drawn) | 0.0024 | 99 | 0.00325 | 96 |
| CN(C)C1(c2cccs2)CCC2(CCN(CCC3CC3)C2)CC1 (stereo not drawn) | 0.0015 | 99 | 0.00145 | 98 |
| CN(C)C1(c2ccccc2)CCC2(CCN(C(=O)C3(O)CCC3)C2)CC1 (stereo not drawn) | 0.0134 | 95.5 | 0.0215 | 81 |
| CN(C)C1(c2cccs2)CCC2(CC1)CC(=O)N(CCC1CCOCC1)C2 (stereo not drawn) | 0.0037 | 99 | 0.013 | 95.5 |
| Cc1ccc(C2(N(C)C)CCC3(CCNC3=O)CC2)s1 (stereo not drawn) | 4.04 | 32 | – | 16.5 |
| CN(C)C1(C2CCCC2)CCC2(CC1)CC(=O)N(CC1CC1)C2 (stereo not drawn) | 0.0165 | 95 | 0.021 | 73.5 |
| COC1(C(=O)N2CCC3(CCC(c4cccs4)(N(C)C)CC3)C2)CC1 (stereo not drawn) | 0.0235 | 91.5 | 0.0855 | 65 |
| CN(C)C1(C2CCCC2)CCC2(CCN(CC3CCC3)C2)CC1 (stereo not drawn) | 0.00465 | 99.5 | 0.00435 | 94.5 |
| CN(C)C1(C2CCCC2)CCC2(CC1)CC(=O)N(CCC1CCC1)C2 (stereo not drawn) | 0.00155 | 100 | 0.016 | 91.5 |
| Cc1ccc(C2(N(C)C)CCC3(CC2)CC(=O)N(CC2CC2)C3)s1 (stereo not drawn) | 1.13 | 44 | 0.455 | 33 |
| COCC1(C(=O)N2CCC3(CCC(c4ccccc4)(N(C)C)CC3)C2)CC1 (stereo not drawn) | 0.045 | 93.5 | 0.105 | 58 |
| CN(C)C1(C2CCCC2)CCC2(CCN(C(=O)C3CCC3)C2)CC1 (stereo not drawn) | 0.0052 | 97 | 0.028 | 67.5 |
| CCCCC1(N(C)C)CCC2(CCN(C(=O)CC3CC3)C2)CC1 (stereo not drawn) | 0.017 | 90.5 | 0.044 | 61.5 |
